These results are taken from US7563899B2, “(S)-N-methylnaltrexone” (Progenics Pharmaceuticals, Inc., priority 2005, dated 2009).

Chains of the proteins cited; added tags and fusions are not shown. Residues count along the entry.
UniProt A0ACM8Q262, 1-400: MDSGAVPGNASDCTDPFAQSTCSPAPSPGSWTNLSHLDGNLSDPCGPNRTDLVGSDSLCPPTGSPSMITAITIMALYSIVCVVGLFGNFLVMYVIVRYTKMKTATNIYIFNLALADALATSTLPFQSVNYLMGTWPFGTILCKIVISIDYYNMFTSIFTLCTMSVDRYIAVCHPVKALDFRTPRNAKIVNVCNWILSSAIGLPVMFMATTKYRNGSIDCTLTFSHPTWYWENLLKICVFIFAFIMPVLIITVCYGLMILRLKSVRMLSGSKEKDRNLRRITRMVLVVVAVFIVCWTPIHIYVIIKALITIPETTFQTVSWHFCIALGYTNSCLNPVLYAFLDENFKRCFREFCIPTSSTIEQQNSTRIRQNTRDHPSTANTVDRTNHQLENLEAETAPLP

The target of this experiment is μ-opioid receptors in the guinea pig ileum (Cavia porcellus, UniProt A0ACM8Q262). As to the kind of experiment: Guinea pig ileum bioassay, test for antagonist activity (against DAMGO-induced response). To be noted: percent of control response to DAMGO, mean, n=2. As to the method: Experimental Conditions. Segments of guinea pig terminal ileum were suspended in 20-ml organ baths filled with an oxygenated (95% O2 and 5% CO2) and pre-warmed (37° C.) physiological salt solution of the following composition (in mM): NaCl 118.0, KCl 4.7, MgSO4 1.2, CaCl2 2.5, KH2PO4 1.2, NaHCO3 25.0 and glucose 11.0 (pH 7.4). Additional experimental conditions were as described in Hutchinson et al. (1975) Brit. J. Pharmacol., 55: 541-546.
Indomethacin (1 μM), nor-binaltorphimine (0.01 μM), methysergide (1 μM), ondansetron (10 μM) and GR113808 (0.1 μM) were also present throughout the experiments to prevent prostanoid release and to block the k-opioid, 5-HT2, 5-HT3 and 5-HT4 receptors, respectively. The tissues were connected to force transducers for isometric tension recordings. They were stretched to a resting tension of 1 g then allowed to equilibrate for 60 min during which time they were washed repeatedly and the tension readjusted. Thereafter, they were stimulated electrically with pulses of minimal intensity to trigger maximal contractions and 1 ms duration, delivered at 0.1 Hz by a constant current stimulator.
Test for antagonist activity. […] Each concentration was left in contact with the tissues until a stable response was obtained or for a maximum of 15 min.
Analysis and Expression of Results. The parameter measured was the maximum change in the amplitude of the electrically-evoked twitch contractions induced by each compound concentration.

With `C=CCN1CC[C@]23c4c5ccc(O)c4O[C@H]2C(=O)CC[C@@]3(O)[C@H]1C5` [naloxone, reference compound], the “Response to DAMGO (1.0E−07 M) in the presence of the compound” value reads like this: (compound 1.0E−07 M) −7%; (compound 2.0E−08 M) 43%; (compound 5.0E−09 M) 83%.
